These are literature values, as cited in patent publication US20040241152A1, “Methods for inducing an immune response with an elevated th1/th2 ratio, by intracellular induction of nfkappab” (priority 2001, published 2004).

“Also recorded” adds a separate entry of the source.

For this series the following is noted: molecule incorporated into DNA vaccine; cited from earlier work.

Regarding “IL-2: cytokine incorporated into DNA vaccines”, the Antibody entry is “↑IgG2a and ↑IgG”; the CTL entry is on record as “↑CTL”; the Cellular response entry is on record as “↑IFNγ; also recorded: ↑proliferation”.
